Here are results for one compound from ChEMBL document CHEMBL4184231, “Selective inhibition of monoamine oxidase A by hispidol” (Bioorg Med Chem Lett, 2018).

The chains behind the UniProt entries cited, without tags or fusion partners.
UniProt P27338, whole entry: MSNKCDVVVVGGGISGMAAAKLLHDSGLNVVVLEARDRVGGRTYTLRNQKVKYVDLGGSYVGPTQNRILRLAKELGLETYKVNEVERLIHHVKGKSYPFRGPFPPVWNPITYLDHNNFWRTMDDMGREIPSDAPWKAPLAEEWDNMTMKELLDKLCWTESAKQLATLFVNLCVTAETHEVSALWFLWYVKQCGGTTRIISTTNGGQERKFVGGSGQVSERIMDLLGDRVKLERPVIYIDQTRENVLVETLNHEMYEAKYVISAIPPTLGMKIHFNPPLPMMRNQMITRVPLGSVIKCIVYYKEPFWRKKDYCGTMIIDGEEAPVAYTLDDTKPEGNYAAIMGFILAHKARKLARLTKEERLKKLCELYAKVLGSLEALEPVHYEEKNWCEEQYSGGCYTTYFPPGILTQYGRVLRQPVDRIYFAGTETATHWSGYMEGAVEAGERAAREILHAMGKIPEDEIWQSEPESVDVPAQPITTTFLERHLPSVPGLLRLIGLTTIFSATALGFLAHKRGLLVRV

The data set deals with Amine oxidase [flavin-containing] B (Homo sapiens, UniProt P27338). As to the kind of experiment: Irreversible inhibition of human recombinant MAOB assessed as residual enzyme activity at 2 time IC50 pre-incubated for 30 mins followed by 0.06 mM benzylamine substrate addition.

For the compound `C#CCN(C)Cc1ccccc1` [PARGYLINE], the Activity amounted to 24%.
